Only a part is listed here, and it is no random draw. The source made the active and inactive calls.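 Rule for the calls: active = inhibition of aptamer binding above 40%, roughly 3 SD of noise, on plates passing a quality check; inactive = the rest.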

Amino acid sequences for entries named in this document (tags omitted). A change or cut given only in a name is not applied to a line headed by its entry.
UniProt P25098: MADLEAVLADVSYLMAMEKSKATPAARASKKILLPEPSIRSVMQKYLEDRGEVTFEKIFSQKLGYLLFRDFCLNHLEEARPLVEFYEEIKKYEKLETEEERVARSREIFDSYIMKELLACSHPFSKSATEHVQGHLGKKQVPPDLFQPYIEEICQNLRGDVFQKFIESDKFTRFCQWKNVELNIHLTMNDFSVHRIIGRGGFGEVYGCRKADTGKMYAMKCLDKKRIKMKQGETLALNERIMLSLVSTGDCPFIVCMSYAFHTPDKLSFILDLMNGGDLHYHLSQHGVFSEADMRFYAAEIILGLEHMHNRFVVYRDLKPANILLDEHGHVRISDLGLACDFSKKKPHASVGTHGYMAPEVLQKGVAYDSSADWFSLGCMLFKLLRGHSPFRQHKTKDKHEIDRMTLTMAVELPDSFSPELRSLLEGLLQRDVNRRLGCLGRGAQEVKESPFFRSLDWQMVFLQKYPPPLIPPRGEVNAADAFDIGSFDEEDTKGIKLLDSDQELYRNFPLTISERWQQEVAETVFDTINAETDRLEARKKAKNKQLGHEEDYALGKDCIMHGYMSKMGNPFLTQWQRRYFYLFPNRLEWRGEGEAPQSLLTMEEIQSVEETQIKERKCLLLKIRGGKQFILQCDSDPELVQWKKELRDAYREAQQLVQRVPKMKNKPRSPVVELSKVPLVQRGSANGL

The experiment addresses Beta-adrenergic receptor kinase 1 (Homo sapiens) (UniProt P25098). Put plainly: compounds blocking aptamer binding on GRK2 – biochemical, human GRK2, bead flow cytometry, HTS, primary screen (AID 488847).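 Note: median bead fluorescence of bound FAM aptamer so fluorescent compounds give negative values.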 As to conditions: FAM-aptamer displacement from GRK2, at 10 µM, hits give high values. For orientation: In flow cytometry, cells or beads pass a laser one at a time.
`Cc1ccc(OP(=O)(Nc2ccc([N+](=O)[O-])cn2)Oc2ccc(C)cc2)cc1`: the inhibition of aptamer binding was inactive: 2%.

For the molecule `C[As](=O)(O)c1cccc(C(=O)O)c1`, the inhibition of aptamer binding was inactive: 1%.

On to `O=[As](O)(c1ccc(O)cc1)c1ccccc1O`, for which the inhibition of aptamer binding is inactive: 1%.

Turning to `CC(C)NC(=O)NP(=O)(Oc1ccccc1)Oc1ccccc1`, the inhibition of aptamer binding was inactive: 2%.

On to `O=[N+]([O-])c1cc([N+](=O)[O-])c(-c2ccn[nH]2)s1`, for which the inhibition of aptamer binding is inactive: 4%.

Take `COc1ccc2nc(NP(=O)(c3ccccc3)c3ccccc3)sc2c1`: the inhibition of aptamer binding was inactive: 1%.

For `O=C(OC1CN2CCC1CC2)C12CC3CC(CC(C3)C1)C2` (stereo not drawn), the inhibition of aptamer binding was inactive: 1%.

Regarding `Cc1c2c(nc3ccccc13)SC(C(Cl)Cl)C2` (stereo not drawn), the inhibition of aptamer binding was inactive: 1%.

Take `COP1(=S)c2c(C)nn(CCC#N)c2N=C(c2ccc(F)cc2)N1C` (stereo not drawn): the inhibition of aptamer binding was inactive: 1%.

Take `CCC(C)N(CC(C)C)C(=S)SC(NC(C)=O)C(Cl)(Cl)Cl` (stereo not drawn): the inhibition of aptamer binding was inactive: 2%.

As for `CCOC(=O)c1ccc(NC(=O)C(C)(CCl)SC)cc1` (stereo not drawn), the inhibition of aptamer binding was inactive: 5%.

`Cc1cc(SC(NC(=O)c2ccccc2)C(Cl)(Cl)Cl)nc(C(C)C)n1` (stereo not drawn): the inhibition of aptamer binding is inactive: 4%.

For `CCOC(=O)Nc1ccc([As](=O)(O)O)c(O)c1`, the inhibition of aptamer binding is inactive: 1%.

As to `O=[N+]([O-])c1ccc(Nc2ccc(Oc3ccc([N+](=O)[O-])cc3[N+](=O)[O-])cc2)c([N+](=O)[O-])c1`, the inhibition of aptamer binding is inactive: 1%.

Take `O=P(Nc1ccccn1)(c1cccc2ccccc12)c1cccc2ccccc12`: the inhibition of aptamer binding is inactive: 3%.

Consider `Cc1cc(SC(NC=O)C(Cl)(Cl)Cl)ncn1` (stereo not drawn), for which the inhibition of aptamer binding was inactive: 1%.

In the case of `O=C(/C=C/c1ccccc1)OC1CN2CCC1CC2` (stereo not drawn), the inhibition of aptamer binding was inactive: 2%.

In the case of `Cc1nn(-c2ccccc2)c2c1P(=O)(N1CCOCC1)N(C)C(c1ccccc1)=N2` (stereo not drawn), the inhibition of aptamer binding is inactive: 2%.

Take `CC1CCC(C(C)C)C(OP(=O)(Nc2ccccn2)c2ccccc2)C1` (stereo not drawn): the inhibition of aptamer binding was inactive: 3%.

In the case of `Cc1ccc(OCC(=O)OC2CN3CCC2CC3)cc1` (stereo not drawn), the inhibition of aptamer binding was inactive: 3%.

As to `O=[As](O)(c1cccs1)c1cccs1`, the inhibition of aptamer binding was inactive: 3%.

As for `O=P1(Nc2ccc(Br)cn2)COc2ccccc2OC1`, the inhibition of aptamer binding was inactive: 3%.

For `NS(=O)(=O)c1cccc(NC(=O)COC(=O)C(O)(c2ccccc2)c2ccccc2)c1`, the inhibition of aptamer binding was inactive: 2%.

For `Clc1n[nH]nc1-c1nn[nH][15n]1`, the inhibition of aptamer binding is inactive: 6%.

For `CC(C)(C)C(=O)NC(Sc1ncccn1)C(Cl)(Cl)Cl` (stereo not drawn), the inhibition of aptamer binding was inactive: 10%.

Regarding `O=[As](O)(c1ccccc1Br)c1ccccc1Br`, the inhibition of aptamer binding was inactive: 1%.

Turning to `CC1(CBr)Cn2c(nc3ccccc3c2=O)S1` (stereo not drawn), the inhibition of aptamer binding is inactive: 6%.

As to `COc1cc(C(=O)NCC2(N3CCOCC3)CCCCC2)cc(Cl)c1OC(C)C`, the inhibition of aptamer binding is inactive: 2%.

For `CS(=O)(=O)c1ccc(Cl)c(NC(=O)COC(=O)C(O)(c2ccccc2)c2ccccc2)c1`, the inhibition of aptamer binding is inactive: 1%.

As to `CCCOP(=S)(Nc1nc(N)cc(=O)[nH]1)OCCC`, the inhibition of aptamer binding was inactive: 4%.

In the case of `Cc1ccc(NCCc2c([N+](=O)[O-])cc([N+](=O)[O-])cc2[N+](=O)[O-])cc1`, the inhibition of aptamer binding is inactive: 7%.

As to `Nc1cccc2c([As](=O)(O)O)cccc12`, the inhibition of aptamer binding was active: 48%.

Consider `Nc1ccccc1[As](=O)(O)c1ccccc1`, for which the inhibition of aptamer binding was inactive: 3%.

With `O=C(O)COc1ccc([As](=O)(O)O)cc1[N+](=O)[O-]`, the inhibition of aptamer binding was inactive: 6%.

Take `O=P(Nc1nccs1)(c1ccccc1)c1nc2ccccc2s1` (stereo not drawn): the inhibition of aptamer binding is inactive: 1%.

For `O=[N+]([O-])c1ccc2c(c1)nnn2O`, the inhibition of aptamer binding is inactive: 1%.

`CN(C)C(=O)c1cc([N+](=O)[O-])cc2c1-c1c(cc([N+](=O)[O-])cc1[N+](=O)[O-])C2=O`: the inhibition of aptamer binding is inactive: 1%.

In the case of `CCNC(=S)/N=C(\N)N[N+](=O)[O-]`, the inhibition of aptamer binding was inactive: 5%.

`c1ccc(-c2nn[nH]n2)c(-c2nn[nH]n2)c1`: the inhibition of aptamer binding was inactive: 7%.

In the case of `Cc1ccc(NP(=O)(Oc2cccc(C)c2)Oc2cccc(C)c2)nc1`, the inhibition of aptamer binding is inactive: 1%.

Turning to `CCOC(=O)NC(Sc1ccccc1)C(Cl)(Cl)Cl` (stereo not drawn), the inhibition of aptamer binding was inactive: 1%.

As for `Cc1ccccc1OP(=O)(Nc1ccccn1)Oc1ccccc1C`, the inhibition of aptamer binding was inactive: 2%.

Turning to `CN(C)C(=O)Oc1noc2ccccc12`, the inhibition of aptamer binding was inactive: 1%.

In the case of `Cc1ccc(OP(=O)(Nc2ccccn2)Oc2ccc(C)cc2)cc1`, the inhibition of aptamer binding is inactive: 2%.

Consider `O=C(OC1CN2CCC1CC2)c1ccccc1` (stereo not drawn), for which the inhibition of aptamer binding was inactive: 1%.

As to `O=P1(Nc2nc3ccc(Cl)cc3s2)COc2ccccc2O1` (stereo not drawn), the inhibition of aptamer binding is inactive: 2%.

As for `CC(=O)Nc1ccc([As](=O)(O)O)c(O)c1`, the inhibition of aptamer binding is inactive: 3%.

With `CC(=O)Nc1ccc(Oc2c([N+](=O)[O-])cc([N+](=O)[O-])cc2[N+](=O)[O-])cc1`, the inhibition of aptamer binding is inactive: 3%.

For `CC(=O)c1ccc(N2CC2c2ccncc2)cc1` (stereo not drawn), the inhibition of aptamer binding was inactive: 6%.

Regarding `C[C@@H]1C=CCP(=O)(Oc2ccccc2)O1` (stereo partly drawn), the inhibition of aptamer binding was inactive: 5%.

Turning to `c1nnnn1CCn1cnnn1`, the inhibition of aptamer binding was inactive: 1%.

With `O=P(Nc1nccs1)(c1ccccc1)c1ccccc1`, the inhibition of aptamer binding was inactive: 1%.

Turning to `O=P(Nc1ccccn1)(c1ccc(Br)cc1)c1ccc(Br)cc1`, the inhibition of aptamer binding is inactive: 2%.

Take `CN(C)C1(CNC(=O)c2ccc(Cl)c(S(N)(=O)=O)c2)CCCCC1`: the inhibition of aptamer binding was inactive: 1%.

In the case of `C(Cc1nn[nH]n1)Cc1nn[nH]n1`, the inhibition of aptamer binding is inactive: 4%.

Take `O=[N+]([O-])c1ccc(O)c(/C=N/Nc2ccc([N+](=O)[O-])cc2[N+](=O)[O-])c1`: the inhibition of aptamer binding was inactive: 4%.

Regarding `O=[N+]([O-])c1ncn(CCn2cnc([N+](=O)[O-])n2)n1`, the inhibition of aptamer binding is inactive: 1%.

For the molecule `O=[As](O)(c1ccccc1)c1ccc(O)cc1`, the inhibition of aptamer binding was inactive: 3%.

For `O=[N+]([O-])c1cccc(NC2=NCC(CBr)S2)c1` (stereo not drawn), the inhibition of aptamer binding was inactive: 1%.

Turning to `O=C(O)CNc1ccc([As](=O)(O)O)cc1`, the inhibition of aptamer binding was inactive: 1%.

With `O=[N+]([O-])c1ncn(CCn2ncnc2[N+](=O)[O-])n1`, the inhibition of aptamer binding was inactive: 2%.

As for `O=[N+]([O-])c1cccc2n[nH]nc12`, the inhibition of aptamer binding is inactive: 1%.

For the molecule `Cc1ccc(NP(=O)(Oc2ccccc2)Oc2ccccc2)nc1`, the inhibition of aptamer binding was inactive: 4%.

As to `O=[N+]([O-])c1cc([N+](=O)[O-])c(CCNc2ccccc2)c([N+](=O)[O-])c1`, the inhibition of aptamer binding was inactive: 7%.

Turning to `COc1ccc(C2=NCC(CBr)S2)cc1` (stereo not drawn), the inhibition of aptamer binding was inactive: 1%.

For the molecule `CC(C)=N/N=C(\N)N[N+](=O)[O-]`, the inhibition of aptamer binding is inactive: 1%.

On to `Nc1ccc([As](=O)(O)c2ccc(N)cc2)cc1`, for which the inhibition of aptamer binding is inactive: 2%.

With `C[N+]1=C2C=CC=CC=C2SC12C([N+](=O)[O-])=CC([N+](=O)[O-])=C[C-]2[N+](=O)[O-]` (stereo not drawn), the inhibition of aptamer binding was inactive: 1%.

For `COc1ccccc1OP(=O)(Nc1ccc(C)cn1)Oc1ccccc1OC`, the inhibition of aptamer binding is inactive: 2%.

Take `Cc1ccc(OP(=O)(Nc2nccs2)Oc2ccc(C)cc2)cc1`: the inhibition of aptamer binding is inactive: 3%.

Regarding `NC(=O)c1cc([N+](=O)[O-])cc([N+](=O)[O-])c1N`, the inhibition of aptamer binding is inactive: 3%.

On to `Oc1ccccc1CNc1ccccn1`, for which the inhibition of aptamer binding is inactive: 5%.

Consider `Cc1cc(SC(NC(=O)c2ccc(F)cc2)C(Cl)(Cl)Cl)ncn1` (stereo not drawn), for which the inhibition of aptamer binding was inactive: 1%.

`Cc1ccc(NP(=O)(Oc2ccccc2F)Oc2ccccc2F)nc1`: the inhibition of aptamer binding is inactive: 3%.

For `CC(=O)Nc1ccc([As](=O)(O)O)cc1`, the inhibition of aptamer binding was inactive: 2%.

For the molecule `O=C(O)c1ccccc1[As](=O)(O)O`, the inhibition of aptamer binding is inactive: 1%.

`Nc1cccc2ccc([As](=O)(O)O)cc12`: the inhibition of aptamer binding was inactive: 3%.

In the case of `O=[N+]([O-])c1cc([N+](=O)[O-])c(CCN2CCOCC2)c([N+](=O)[O-])c1`, the inhibition of aptamer binding was inactive: 13%.

Values taken from PubChem BioAssay AID488847 (NMMLSC, 2010).
